Experimental data taken from US7439264B2, “Therapeutic compounds” (President and Fellows of Harvard College, priority 2002, dated 2008).
pIC50: −log10 of the molar value.

By UniProt entry, the sequences of proteins in these tests, tags left out. Residues count along the entry.
UniProt A7KAX8, 1-630: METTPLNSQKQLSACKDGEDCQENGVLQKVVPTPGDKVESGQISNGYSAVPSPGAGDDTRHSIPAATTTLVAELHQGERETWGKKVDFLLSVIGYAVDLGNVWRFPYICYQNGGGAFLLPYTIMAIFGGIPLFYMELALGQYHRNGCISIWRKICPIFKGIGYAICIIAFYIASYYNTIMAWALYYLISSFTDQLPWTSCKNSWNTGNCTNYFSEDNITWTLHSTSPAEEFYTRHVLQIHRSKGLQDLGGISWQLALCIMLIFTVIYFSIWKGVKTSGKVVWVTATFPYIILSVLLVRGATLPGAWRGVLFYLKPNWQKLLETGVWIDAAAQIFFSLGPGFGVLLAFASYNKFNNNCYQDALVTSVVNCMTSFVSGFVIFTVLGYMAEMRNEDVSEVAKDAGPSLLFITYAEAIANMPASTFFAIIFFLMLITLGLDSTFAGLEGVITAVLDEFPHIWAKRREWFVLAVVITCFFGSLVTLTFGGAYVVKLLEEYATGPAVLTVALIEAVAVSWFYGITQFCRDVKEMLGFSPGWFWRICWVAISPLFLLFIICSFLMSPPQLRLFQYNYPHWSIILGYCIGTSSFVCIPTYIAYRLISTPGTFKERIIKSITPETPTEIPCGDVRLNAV
UniProt Q9GJT6, whole entry: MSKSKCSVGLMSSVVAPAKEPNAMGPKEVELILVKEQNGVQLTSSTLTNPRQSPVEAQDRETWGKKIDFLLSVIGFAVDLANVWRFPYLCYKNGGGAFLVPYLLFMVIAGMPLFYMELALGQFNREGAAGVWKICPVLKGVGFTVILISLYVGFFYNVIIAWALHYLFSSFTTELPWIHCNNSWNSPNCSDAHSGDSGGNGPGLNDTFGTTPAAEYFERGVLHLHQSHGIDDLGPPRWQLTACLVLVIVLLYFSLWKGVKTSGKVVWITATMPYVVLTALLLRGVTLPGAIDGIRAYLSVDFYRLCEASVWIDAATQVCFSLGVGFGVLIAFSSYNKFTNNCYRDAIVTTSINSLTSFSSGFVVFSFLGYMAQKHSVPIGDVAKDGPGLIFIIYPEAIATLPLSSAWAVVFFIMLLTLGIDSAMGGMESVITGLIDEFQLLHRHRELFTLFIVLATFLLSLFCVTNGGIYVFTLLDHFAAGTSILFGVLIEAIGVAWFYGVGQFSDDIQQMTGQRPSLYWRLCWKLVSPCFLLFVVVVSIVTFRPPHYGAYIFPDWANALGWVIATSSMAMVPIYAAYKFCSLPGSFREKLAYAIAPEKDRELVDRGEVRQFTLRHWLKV

Columns and labels:
[1] = target: serotonin transporter (SERT) (UniProt A7KAX8); experiment: Competition binding with [3H]citalopram at the serotonin transporter; details: read-out: SERT (binding, Table 6); unit inferred
[2] = target: dopamine transporter (DAT) (UniProt Q9GJT6); experiment: Competition binding with [3H]WIN 35,428 at the dopamine transporter; details: read-out: DAT (binding, Table 6); unit inferred

COC(=O)C1C(c2ccc(F)cc2)CC2CCC1N2CCN1C(=O)C=CC1=O (single isomer, unassigned)
pIC50 [1]: 5.44 | pIC50 [2]: 6.92
